pIC50: −log10 of the molar value.
Assays:
[1] = test system: HIV-1 92HT599
[2] = test system: HIV-1 MDR 769
[3] = test system: all tested HIV strains; experiment: microbe, parasite or virus in culture; details: Human immunodeficiency virus 1, PBMC, read-out: IC50 with respect to all tested HIV strains
[4] = test system: HIV-2 CDC 310319
[5] = test system: HIV-2 CBL20 H9
[6] = test system: HIV-1 91US001

Compound	Antiviral Index (TC50/IC50) [1]	Antiviral Index (TC50/IC50) [2]	pIC50 [3]	Antiviral Index (TC50/IC50) [4]	Antiviral Index (TC50/IC50) [5]	Antiviral Index (TC50/IC50) [6]	concentration required to result in a 50% (TC50) inhibition of viral replication [1] [nM]	concentration required to achieve a 50% (TC50) inhibition of viral replication [2] [nM]	concentration required to achieve a 50% (TC50) inhibition of viral replication [4] [nM]	concentration required to result in a 50% (TC50) inhibition of viral replication [5] [nM]	concentration required to achieve a 50% (TC50) inhibition of viral replication [6] [nM]
NCC(=O)Nc1ccc(-n2nc(C(F)(F)F)cc2-c2ccc3c(ccc4ccccc43)c2)cc1 [AR-12, 2-amino-N-(4-(5-(phenanthren-2-yl)-3-(trifluoromethyl)-1H-pyrazol-1-yl)phenyl)acetamide]	22.6	19.9	6.29 to 6.62	16.4	12.0	25.6					
Cc1cn([C@H]2C[C@H](N=[N+]=[N-])[C@@H](CO)O2)c(=O)[nH]c1=O [AZT, azidothymidine]	>84.0			>174	>10,000	>57.5	11.9	> 1000	5.73	< 0.10	17.4
O=C1Nc2ccc(Cl)cc2[C@@](C#CC2CC2)(C(F)(F)F)O1 [Efavirenz]		>1,506						0.66			
Cc1cccc(C)c1OCC(=O)N[C@@H](Cc1ccccc1)[C@@H](O)C[C@H](Cc1ccccc1)NC(=O)[C@H](C(C)C)N1CCCNC1=O [Lopinavir]		>1.21						877			
